## Yeast mating assay 1: variants of the scFv Ab-14

Binding partner: SARS-CoV-2 spike HR2 peptide, sequence PDVDLGDISGINAS.

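The library (AAYL50) carries one to three amino acid substitutions per variant, with no insertions or deletions. Affinity was read by AlphaSeq, a pooled yeast mating assay with surface-displayed partners. Binding brings cells together so that they mate, and sequencing counts the barcode pairs among the diploids. Scores were corrected for input abundance and mapped to Kd with protein pairs of known affinity run in the same pool. Each pool was mated in three replicate cultures.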

Parent scFv Ab-14: VH joined to VL by a (GGGGS)3 linker. Changes lie in the light chain CDRs alone.
VH: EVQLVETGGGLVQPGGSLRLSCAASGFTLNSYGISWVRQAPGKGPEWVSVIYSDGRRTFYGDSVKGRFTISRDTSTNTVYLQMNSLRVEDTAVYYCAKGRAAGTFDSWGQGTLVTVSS
VL: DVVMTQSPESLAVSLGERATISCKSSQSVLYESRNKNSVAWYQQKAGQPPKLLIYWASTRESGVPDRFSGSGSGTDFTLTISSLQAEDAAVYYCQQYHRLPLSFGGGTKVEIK

Substitutions are numbered in sequence along the VL above, starting at 1 (not Kabat).
All variants listed here change R99 of the VL, counted from its first residue.
Affinities are written as log10 Kd with Kd in nM; a lower number is a better binder.
The mean shown is taken over the replicates in which the pair was detected.
An entry "no signal" has no value in the source: the pair was not observed among the diploids in any replicate. This suggests poor binding but is not conclusive.
In this assay the parent's reference entry averaged 0.65; its copy inside this library read 1.68.
Empty control strains, which show no peptide, gave a signal in 18% of pairings with library AAYL50; the median was 4.19 and 95% of these signals were weaker than 2.99. No background was subtracted.

| changes | log10 Kd (nM), mean | detected |
|---|---|---|
| R34P R99P L102N | 2.07 | 3 of 3 |
| S33A R99W P101D | 3.55 | 1 of 3 |
| A40I H98E R99L | no signal | 0 of 3 |
| A40S E61T R99N | 2.97 | 1 of 3 |
| S58H T59H R99E | 2.74 | 3 of 3 |
| K36M W56N R99D | 0.58 | 3 of 3 |
| R34E R99G | 1.75 | 3 of 3 |
| S33M S38V R99E | 5.37 | 1 of 3 |
| K24M E61C R99E | 3.01 | 3 of 3 |
| R99A P101W L102Q | no signal | 0 of 3 |
| N37V Y97F R99V | 4.02 | 1 of 3 |
| S58Q R99A | 2.98 | 3 of 3 |
| L30E K36P R99I | 1.82 | 3 of 3 |
| K36Y V39C R99T | 3.75 | 3 of 3 |
| E32I S38M R99G | no signal | 0 of 3 |
| S28N R60P R99A | no signal | 0 of 3 |
| A57S Y97H R99W | 4.48 | 1 of 3 |
| Q96D R99V | 0.71 | 3 of 3 |
| S26C N37F R99I | 3.69 | 3 of 3 |
| S26Q S38W R99S | 4.44 | 2 of 3 |
| N37M R99W | no signal | 0 of 3 |
| T59E R60G R99A | 2.97 | 1 of 3 |
| S38Y A40S R99V | 4.89 | 2 of 3 |
| A40W R99H | no signal | 0 of 3 |
| V29A Y97W R99K | 5.58 | 2 of 3 |
| Q27T S28L R99T | 2.14 | 3 of 3 |
| S28Q Q96I R99V | 4.03 | 2 of 3 |
| T59C H98I R99I | 2.42 | 3 of 3 |
| E61S Y97V R99I | 2.20 | 3 of 3 |
| Y97V R99I L100N | 3.76 | 2 of 3 |
| R99E L100W | 3.61 | 1 of 3 |
| Q27V A57H R99D | 4.25 | 2 of 3 |
| E32T V39I R99D | 2.02 | 3 of 3 |
| S25R H98A R99N | 2.08 | 3 of 3 |
| Q96H R99C S103T | 0.94 | 3 of 3 |
| S33Q R99K | 1.68 | 3 of 3 |
| A57K T59A R99F | 4.12 | 2 of 3 |
| Q95C R99F P101A | no signal | 0 of 3 |
| S58L Q95D R99H | 3.30 | 2 of 3 |
| T59L R60W R99A | 2.22 | 1 of 3 |
| S62L R99C | 0.64 | 3 of 3 |
| W56M E61Q R99V | 0.68 | 3 of 3 |
| N35A R99K | no signal | 0 of 3 |
| Y31K R60L R99D | 1.80 | 2 of 3 |
| E32Y Y97G R99N | no signal | 0 of 3 |
| S26H K36C R99L | 1.29 | 3 of 3 |
| Y31N S33M R99K | 1.63 | 3 of 3 |
| K24A E32A R99A | no signal | 0 of 3 |
| E61T R99F P101Q | 2.99 | 1 of 3 |
| R34F Y97K R99N | 0.49 | 3 of 3 |
| S26W E32Y R99P | no signal | 0 of 3 |
| N35C R99P | 4.83 | 2 of 3 |
| S26C E61M R99Y | 2.52 | 3 of 3 |
| S28T N35L R99W | no signal | 0 of 3 |
| K24V R99S | 1.09 | 3 of 3 |
| R34T R99I | 0.69 | 3 of 3 |
| L30P A57Y R99G | no signal | 0 of 3 |
| S25D S33A R99V | no signal | 0 of 3 |
| L30R Y31S R99Q | 1.31 | 3 of 3 |

Reference: Engelhart et al. 2022, doi:10.1038/s41597-022-01779-4. File: FLAb, binding data.